Measurements: paper PMC5066155 (ACS Medicinal Chemistry Letters, 2016)

Target: T1, sPLA2-IIa (Homo sapiens, UniProt P14555)
T1 sequence (P14555 21-144): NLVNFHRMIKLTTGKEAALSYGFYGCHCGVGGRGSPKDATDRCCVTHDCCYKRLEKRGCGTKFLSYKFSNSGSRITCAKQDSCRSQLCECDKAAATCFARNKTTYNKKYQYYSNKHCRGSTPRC
Assay: Ligand efficiency / ligand lipophilicity efficiency from sPLA2-IIa IC50

CCc1c(C(=O)C(N)=O)c2c(OCC(=O)O)cccc2n1Cc1ccccc1 [varespladib]
LLE (pIC50 (sPLA2-IIa) – logD): 7.2
LE (−RT ln(sPLA2-IIa IC50)/heavy atom count): 0.37 kcal/mol/HAC
